The text below walks through data of ChEMBL document CHEMBL1165955, “Synthesis and biological evaluation of novel (4 or 5-aryl)pyrazolyl-indoles as inhibitors of interleukin-2 inducible T-cell kinase (ITK)” (Bioorg Med Chem, 2010).

Each structure is given as a SMILES string. Where only a bound is given, the exact number is not on record here.

The experiment can be described thus: Selectivity ratio of IC50 for GST-tagged recombinant INSR catalytic domain to IC50 for GST-tagged full length recombinant ITK.

As for `CC(C)CN(C)C(=O)c1ccc2cc(-c3cc(Cc4ccccc4)[nH]n3)[nH]c2c1`, the Ratio IC50 was over 178.
